{"source": "patent US12702715B2", "about": "“Targeted RNA degradation allows precision repurposing of protein-targeted small molecule medicines to RNA” (University of Florida Research Foundation, Incorporated, priority 2020, dated 2026)", "key": {"[1]": {"system": "RTK / phosphorylation of ERK (pERK)", "assay": "Western blot of ERK phosphorylation (functional RTK inhibition) in MDA-MB-231 cells", "format": "cell-based, human", "method": "Western Blotting. MDA-MB-231 cells were plated in 6-well plates. […] After 48 h, the medium was removed, and the cells were washed with 1×DPBS. The cells were harvested by trypsinization, and total protein was extracted with MPER (Mammalian Protein Extraction Reagent, Thermo Scientific) as previously described^6. Protein concentrations were determined by using a Pierce Micro BCA Protein Assay kit (Fisher Scientific). […] The membrane was washed with 1×TBST for 10 min three times and then incubated with 1:2000 anti-rabbit IgG horseradish-peroxidase secondary antibody conjugate (Cell Signaling Technology, 7074S) in 1× TBST containing 5% (w/v) milk for about 2 h. […] After imaging, the membrane was stripped with 1× Stripping Buffer (200 mM glycine with 0.1% SDS, pH 2.2) for 120 min at RT, and β-actin level was detected as described for PDCD4 except using β-actin (Cell Signaling Technology, 3700S) primary antibody (1:5000 dilution). ImageJ software was used for quantification of the protein bands. […] In each case, the secondary antibody was diluted two times more than the primary antibody."}, "miR-21": {"system": "miR-21", "assay": "RT-qPCR of mature miR-21 levels in MDA-MB-231 cells", "format": "cell-based, human", "method": "Cell Culture. Cells were cultured at 37° C. and 5% CO2. MDA-MB-231 cells (HTB-26, ATCC) were cultured in RMPI 1640 medium with L-glutamine & 25 mM HEPES supplemented with 1× Antibiotic/Antimycotic solution (Corning) and 10% FBS. MCF-10A cells (CRL-10317, ATCC) were cultured in 1×DMEM/F12 50/50 with L-glutamine & 15 mM HEPES (Corning) supplemented with 20% FBS, 1× Antibiotic/Antimycotic solution, 20 ng/mL human epidermal growth factor (Pepro Tech, Inc.), 10 μg/mL insulin (Sigma-Aldrich), and […] hydrocortisone (Pfaltz & Bauer). For compound treatment, compound stocks either in DMSO or water were diluted in growth medium and added to cells for the indicated time. Plasmid DNA to overexpress pre-miR-21 in pcDNA 3.1 (Addgene 21114) or a plasmid DNA encoding the pre-miR-21 mutant (custom purchased from GenScript USA, Inc.) was transfected with jetPRIME per the manufacturer's protocol. After transfection, the medium was replaced with growth medium containing the compound of interest, prepared as described above. The RNase L-targeting siRNA or a control siRNA was transfected with Lipofectamine RNAiMAX reagent (Invitrogen) per the manufacturer's protocol.\nRNA Isolation and Quantitative Real-Time PCR (RT-qPCR). After treatment, total RNA was extracted and purified by using the Zymo Quick-RNA mini prep kit per the manufacturer's protocol. […]"}}, "data": [{"smiles": "CN1CCN(c2ccc3nc(-c4c(N)c5c(F)cccc5[nH]c4=O)[nH]c3c2)CC1", "note": "[Compound 1, Dovitinib, reference compound]", "values": [{"measurement": "concentration affecting the canonical protein target", "setting": "[1]", "value": 100, "unit": "nM"}, {"measurement": "concentration affecting the repurposed RNA target", "setting": "miR-21", "value": 5, "unit": "µM"}]}]}
